Earlier results, collected in patent publication US9459187B2, “Blood collection device containing lysophospholipase inhibitor” (Becton, Dickinson and Company, priority 2011, dated 2016).

The chains behind the UniProt entries cited, without tags or fusion partners. Where a name states a change or a piece, a line headed by the entry shows the natural chain unless it says otherwise.
UniProt P22303: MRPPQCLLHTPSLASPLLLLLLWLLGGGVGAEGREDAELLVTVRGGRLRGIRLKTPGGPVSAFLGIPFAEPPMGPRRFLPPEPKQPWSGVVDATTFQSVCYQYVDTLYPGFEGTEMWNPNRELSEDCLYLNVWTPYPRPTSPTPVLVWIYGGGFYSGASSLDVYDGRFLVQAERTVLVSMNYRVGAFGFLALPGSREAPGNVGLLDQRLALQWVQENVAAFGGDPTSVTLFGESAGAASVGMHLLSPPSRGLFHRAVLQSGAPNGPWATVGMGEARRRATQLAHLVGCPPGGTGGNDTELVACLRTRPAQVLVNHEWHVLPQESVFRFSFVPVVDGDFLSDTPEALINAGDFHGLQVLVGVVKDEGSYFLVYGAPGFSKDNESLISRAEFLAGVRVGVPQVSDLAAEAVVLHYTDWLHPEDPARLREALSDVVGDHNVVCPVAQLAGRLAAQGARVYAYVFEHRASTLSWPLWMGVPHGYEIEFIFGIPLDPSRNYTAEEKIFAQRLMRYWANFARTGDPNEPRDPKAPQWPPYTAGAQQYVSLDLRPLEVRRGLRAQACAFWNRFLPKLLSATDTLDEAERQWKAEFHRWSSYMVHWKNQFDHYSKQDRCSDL

Target: acetylcholinesterase (AChE) (Homo sapiens, UniProt P22303)
Conditions: read-out: Ki for AChE; reported literature values

Row | Substance | Ki [nM]
1 | (9E)-N1-(7-(1,2,3,4-Tetrahydroacridin-9-ylamino)heptyl)-9-ethylidene-4,4,7-trimethylbicyclo[3.3.1]non-6-ene-1,3-diamine | 16.5
2 | (9E)-N1-(7-(1,2,3,4-Tetrahydroacridin-9-ylamino)heptyl)-9-ethylidene-7-methylbicyclo[3.3.1]non-6-ene-1,3-diamine | 15.7
